# T1: RNase A (bovine, UniProt P61823 27-150)
# T1 construct: also called bovine RNase A
# T1 sequence (looked up): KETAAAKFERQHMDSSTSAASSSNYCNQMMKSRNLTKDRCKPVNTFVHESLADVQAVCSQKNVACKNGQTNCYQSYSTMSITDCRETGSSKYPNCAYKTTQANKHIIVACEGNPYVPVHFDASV
# Target: T1, RNase A
# Experiment: panning of chimeric phages on RNase A coated immunotubes
binder,measurement,value
iMab130 displayed on phage as fusion with the g3 coat protein (designed binder) NVKLVEKGGNFVENDDDLKLTCRASGYAYTYTYMGWFRQAPNDDSTNVATIDSGGGGTLYGDSVKERFDIRRDKGSNTVTLSMDDLQPEDSAEYNCAAGGYELRDRTYGQRGQGTDVTVSS,binding result,no binding

# Reference: patent publication WO2003050283A2 (dated 2003)
